Measured values taken from patent publication US8907107B2 (Hae Therapeutics Limited, priority 2009, dated 2014).
Several values for one entry are separate records, joined by “and”; a condition that tells them apart may be missing. Equal entries are not always repeated.

Experiments:
[1] = Fluorescence emission spectra and quantum yield; assay type: physicochemical; details: for λmax flu / λmax emiss.: 5 × 10^−7 M; for λmax emiss.: excitation 640 nm, slit widths 5 nm
[2] = Excerpt: A trace pH=6.0, B trace pH=9.0. Excitation at 640 nm, slit widths 10 nm, 5×10^−7 M in water/CrEL.
FIG. 6. […] Excitation at 640 nm, slit widths 20 nm, 5×10^−7 M in water/CrEL. INaCl=150 mmol/L.

[3] = UV-visible absorption spectra; assay type: physicochemical; details: 5 × 10^−6 M

Molecule: OC[C@H]1O[C@@H](n2cc(COc3ccc(-c4cc(-c5ccccc5)c5n4[B-](F)(F)[N+]4=C(c6ccc(O)cc6)C=C(c6ccccc6)C4=N5)cc3)nn2)[C@H](O)[C@@H](O)[C@H]1O [Compound 8a]
- λmax flu ([1]; CH3OH): 716 nm

Molecule: BF2 Chelate of 4-{4-phenyl-5-[3-phenyl-5-(4-prop-2-ynyloxyphenyl)-pyrrol-2-ylideneamino]-1H-pyrrol-2-yl}phenol [Compound 2]
- fluorescence signal at pH 9 ([2]; aqueous solutions, 729 nm): virtually complete suppression of fluorescence signal
- fluorescence intensity differential between pH 6 and 8 ([2]; at λmax 729 nm in aqueous solutions): greater than 15 fold
- apparent pKa ([2]; sigmoidal plot of pH versus fluorescence intensity, water/CrEL, NaCl 150 mmol/L): 6.9
- isosbestic point ([2]; water/CrEL, 5×10^−6 M, UV-visible pH profile): 740 nm
- new absorption band with increasing pH ([2]; water/CrEL, 5×10^−6 M, mono-deprotonated species): 775 nm
- λmax flu ([1]; C7H8): 711 nm
- λmax flu ([1]; CH3OH): 716 nm
- fluorescence quantum yield Φf ([1]; CHCl3, 1 as standard): 0.37
- λmax flu ([1]; CHCl3): 708 nm and 708^c nm
- λmax flu ([1]; H2O/CrEL): 729 nm
- λmax abs ([3]; C7H8): 685 nm
- λmax abs ([3]; CH3OH): 688 nm
- λmax abs ([3]; CHCl3): 680 nm
- λmax abs ([3]; H2O/CrEL): 700 nm

Molecule: O=C(O)COc1ccc(C2=[N+]3C(=Nc4c(-c5ccccc5)cc(-c5ccc(OCC(=O)O)cc5)n4[B-]3(F)F)C(c3ccccc3)=C2)cc1 [Compound 16]
- λmax emiss. ([1]; CHCl3): 711 nm

Molecule: O=C(O)CCCn1cc(COc2ccc(C3=NC(=Nc4[nH]c(-c5ccc(O)cc5)cc4-c4ccccc4)C(c4ccccc4)=C3)cc2)nn1 [Compound 8b, 4-[4-(4-[5-[5-(4-Hydroxyphenyl)-3-phenyl-1H-pyrrol-2-ylimino]-4-phenyl-5H-pyrrol-2-yl]-phenoxymethyl)-[1,2,3]triazol-1-yl]butyric acid]
- λmax flu ([1]; CH3OH): 716 nm

Molecule: COCCOCCOCCOc1ccc(-c2cc(-c3ccccc3)c3n2[B-](F)(F)[N+]2=C(c4ccc(OCCNC(=O)OC(C)(C)C)cc4)C=C(c4ccccc4)C2=N3)cc1 [Compound 9]
- λmax abs ([3]; ethanol): 688 nm

Molecule: CC(C)(C)OC(=O)NCCn1cc(COc2ccc(C3=NC(=Nc4[nH]c(-c5ccc(O)cc5)cc4-c4ccccc4)C(c4ccccc4)=C3)cc2)nn1 [Compound 8c, {2-[4-(4-{5-[5-(4-Hydroxyphenyl)-3-phenyl-1H-pyrrol-2-ylimino]-4-phenyl-5H-pyrrol-2-yl}-phenoxymethyl)-[1,2,3]triazol-1-yl]ethyl}carbamic acid t-butyl ester]
- λmax flu ([1]; CH3OH): 716 nm

Molecule: O=S(=O)(O)CCCOc1ccc(C2=[N+]3C(=Nc4c(-c5ccccc5)cc(-c5ccc(OCCCS(=O)(=O)O)cc5)n4[B-]3(F)F)C(c3ccccc3)=C2)cc1 [Compound 17]
- λmax emiss. ([1]; MeOH): 716 nm
